Binding of CDR-mutated scFvs to a peptide of the spike HR2 region

Target: peptide PDVDLGDISGINAS, taken from heptad repeat 2 (HR2) of SARS-CoV-2 spike.

Parent scFv Ab-14: VH joined to VL by a 15-residue (Gly4Ser)3 linker. Changes lie in the heavy chain CDRs alone.
VH: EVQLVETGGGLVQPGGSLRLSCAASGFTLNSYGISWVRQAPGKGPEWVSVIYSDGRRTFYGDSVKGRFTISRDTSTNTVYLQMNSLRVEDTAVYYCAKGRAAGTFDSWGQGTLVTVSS
VL: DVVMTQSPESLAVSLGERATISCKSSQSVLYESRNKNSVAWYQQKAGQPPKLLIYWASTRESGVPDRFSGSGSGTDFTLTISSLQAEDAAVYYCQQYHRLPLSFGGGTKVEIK

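Phage display of a naive human antibody library on the peptide gave the parent. In library AAYL49, one, two or three CDR residues were substituted; doubles and triples were drawn at random. In AlphaSeq, yeast of one mating type display the scFv and yeast of the other type display the target. The frequency of each diploid, read from paired DNA barcodes, reflects how well the two displayed proteins bind. Read counts were normalised to the haploid input and turned into Kd by a linear fit to BCL2-family pairs of known affinity, for each replicate. Mating was done three times.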

Changes read parent residue, position, new residue, counted from the first residue of the VH shown.
This list gathers variants with a substitution at S63 (VH, numbered from residue 1).
Each Kd is an estimate from the mating assay, the geometric mean of the replicates in which the pair was seen; lower is stronger.
Where no diploid with the target was found in any replicate, the entry reads "no signal": below detection, most likely a poor binder, though not proof of it.
As a blank, each scFv also met three strains without target: over library AAYL49, 15% of these pairings were detected, typically at 11 µM and seldom below 680 nM. The control count says in how many pairings with the empty strains this scFv gave a signal.
In this assay the parent's reference entry averaged 4.4 nM; its copy inside this library read 13 µM (one replicate of three).

The variant F27Y/T28R/S63L showed 1.3 µM (3 of 3 replicates; controls 3 of 9). The variant G61T/S63P gave 17 nM (3 of 3 replicates; controls 0 of 9). The variant S63P showed 39 nM (3 of 3 replicates; controls 1 of 9). For R57V/S63P/S107N, the assay gave no signal (0 of 3 replicates; controls 0 of 9). The variant S31H/S63Y gave 4.4 µM (2 of 3 replicates; controls 2 of 9). The variant I51T/S63W showed no signal (0 of 3 replicates; controls 0 of 9). With G55R/S63V/A101G the result was 2.9 µM (1 of 3 replicates; controls 6 of 9). The variant N30C/G33Q/S63K showed 16 µM (3 of 3 replicates; controls 4 of 9). The variant T28H/S31N/S63G gave 64 nM (3 of 3 replicates; controls 2 of 9).

The variant L29Q/R57A/S63G showed no signal (0 of 3 replicates; controls 0 of 9). With L29W/S63E/D106T the result was no signal (0 of 3 replicates; controls 0 of 9). For G33V/S63A/A102V, the assay gave 1.3 µM (1 of 3 replicates; controls 6 of 9). With S53V/S63Y/G99M the result was no signal (0 of 3 replicates; controls 0 of 9). The variant S31G/S63R/K65C gave no signal (0 of 3 replicates; controls 0 of 9). The variant G33S/G55K/S63C showed no signal (0 of 3 replicates; controls 1 of 9). With I51N/S63P/A101Q the result was 43 µM (1 of 3 replicates; controls 1 of 9). The variant S63F/V64N/S107R gave 18 µM (1 of 3 replicates; controls 1 of 9). With I34F/S63L the result was no signal (0 of 3 replicates; controls 1 of 9).

The variant V50D/S63I/V64D gave no signal (0 of 3 replicates; controls 0 of 9). For G33Q/S63N/S107Y, the assay gave 27 µM (1 of 3 replicates; controls 0 of 9). The variant S63C/G103Y/F105T showed 53 nM (3 of 3 replicates; controls 2 of 9). The variant S31C/S35M/S63R showed 400 µM (1 of 3 replicates; controls 3 of 9). For G55P/S63V/R100A, the assay gave 15 µM (1 of 3 replicates; controls 2 of 9). For I34A/V50F/S63H, the assay gave no signal (0 of 3 replicates; controls 0 of 9). For S63E/V64W/A101V, the assay gave 2.2 µM (3 of 3 replicates; controls 1 of 9). The variant G33H/D62H/S63N gave no signal (0 of 3 replicates; controls 0 of 9). With Y60G/S63N the result was no signal (0 of 3 replicates; controls 0 of 9).

With G26S/S63I the result was 39 nM (3 of 3 replicates; controls 1 of 9). The variant N30K/S63M/D106Q gave 29 nM (3 of 3 replicates; controls 3 of 9). For V50K/S63N/F105W, the assay gave no signal (0 of 3 replicates; controls 1 of 9). The variant S63H showed 260 nM (3 of 3 replicates; controls 0 of 9). With S63W/T104R the result was no signal (0 of 3 replicates; controls 0 of 9). The variant Y32Q/S63E/D106T showed no signal (0 of 3 replicates; controls 0 of 9). For G33W/Y60Q/S63I, the assay gave no signal (0 of 3 replicates; controls 2 of 9). For I34G/S35L/S63I, the assay gave 3.9 µM (1 of 3 replicates; controls 0 of 9). The variant V50L/R57E/S63L showed 61 µM (2 of 3 replicates; controls 2 of 9).

For N30H/F59K/S63H, the assay gave 170 µM (1 of 3 replicates; controls 3 of 9). The variant N30I/S53C/S63L gave no signal (0 of 3 replicates; controls 0 of 9). The variant D54R/S63K/S107D gave 120 µM (2 of 3 replicates; controls 4 of 9). With T28D/S63Q/G99F the result was no signal (0 of 3 replicates; controls 0 of 9). With T58P/S63H the result was 3.5 µM (1 of 3 replicates; controls 1 of 9). For R57W/Y60R/S63P, the assay gave 9.5 µM (2 of 3 replicates; controls 2 of 9). With Y52C/S63R the result was 11 µM (3 of 3 replicates; controls 7 of 9). The variant G55L/S63H/R100C showed no signal (0 of 3 replicates; controls 0 of 9). For T28E/V50G/S63Q, the assay gave no signal (0 of 3 replicates; controls 3 of 9).

The variant G26A/D54L/S63L gave 1.6 mM (1 of 3 replicates; controls 1 of 9). The variant G55I/S63W gave no signal (0 of 3 replicates; controls 0 of 9). For F59Y/S63Q/A102T, the assay gave no signal (0 of 3 replicates; controls 0 of 9).

A selection of 7 entries from above:

changes,apparent Kd,detected,control signals
R57W/Y60R/S63P,9.5 µM,2 of 3,2 of 9
V50D/S63I/V64D,no signal,0 of 3,0 of 9
S63F/V64N/S107R,18 µM,1 of 3,1 of 9
G55P/S63V/R100A,15 µM,1 of 3,2 of 9
S31G/S63R/K65C,no signal,0 of 3,0 of 9
F27Y/T28R/S63L,1.3 µM,3 of 3,3 of 9
I51T/S63W,no signal,0 of 3,0 of 9

The measurements come from Engelhart et al. 2022 (doi:10.1038/s41597-022-01779-4) through the FLAb antibody collection.